# Measured affinities in a library of Ab-91 heavy chain variants

Values reported by Engelhart et al. 2022, doi:10.1038/s41597-022-01779-4 (FLAb copy).

The target is the same throughout: PDVDLGDISGINAS, from the HR2 region of SARS-CoV-2 spike.

Ab-91 is the parent antibody, in scFv form: VL, then three GGGGS repeats, then VH. The light chain is unchanged in all variants.
VL: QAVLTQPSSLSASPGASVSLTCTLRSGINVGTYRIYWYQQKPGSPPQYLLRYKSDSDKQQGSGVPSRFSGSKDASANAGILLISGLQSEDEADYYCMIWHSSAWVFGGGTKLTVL
VH: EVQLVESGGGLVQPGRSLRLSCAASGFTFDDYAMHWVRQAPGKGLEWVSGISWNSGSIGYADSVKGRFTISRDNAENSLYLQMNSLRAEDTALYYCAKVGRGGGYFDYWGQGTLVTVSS

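The parent was found by panning a naive human phage display library on the peptide. Variants in AAYL51 differ from the parent at up to three CDR positions; double and triple changes were sampled at random. AlphaSeq pools MATa yeast showing the antibodies with MATalpha yeast showing the peptide. Mating (16 h, 30 °C) was followed by selection of diploids and sequencing of their barcodes. A regression on co-assayed BCL2-family reference pairs converts the normalised counts of each replicate to an apparent Kd. Each pool was mated in three replicate cultures.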

Variants are written as CDR1, CDR2 and CDR3 of the heavy chain (limits as in the source). Parent: GFTFDDYAMH, GISWNSGSIGYADSVK, VGRGGGYFDY. All variants listed here change G26 of the VH, counted from its first residue. Numbers give log10(Kd / nM), so 0 is 1 nM and 3 is 1 µM. Smaller is tighter. The mean shown is taken over the replicates in which the pair was detected. An entry "no signal" has no value in the source: the pair was not observed among the diploids in any replicate. This suggests poor binding but is not conclusive. Three control strains display no target. For library AAYL51, 21% of the pairings with them gave a signal, with a median of 4.54 and one signal in twenty below 3.26, so weak values seen in few replicates may be background.

Variant YFTFDDYAMN / GISWNSGSIGYADDVK / VGRGGGYFDY showed 4.78 (2 of 3 replicates). Variant MFTADDYAMH / GISWNSGSIGYADSVK / VGRGGGYFDK showed 4.03 (1 of 3 replicates). Variant EFTFDDYAMH / GISWNSGSNGMADSVK / VGRGGGYFDY gave no signal (0 of 3 replicates). Variant PFTFDDYKMH / GISWNSGSIGYADSVK / VGRGGGYFDY showed no signal (0 of 3 replicates). For MFTFDDYAMH / GISWNSGSIGMCDSVK / VGRGGGYFDY, the assay gave no signal (0 of 3 replicates). For DFTFDDYGMH / GISWNSGSIGYADSVK / VGRGGMYFDY, the assay gave 5.03 (3 of 3 replicates). With SFTFDDYAYH / GISWNSGSIGYADSVK / PGRGGGYFDY the result was 2.13 (3 of 3 replicates).

With SFTFVDYAMH / GISWNSGSIGYADSVK / VGRGGHYFDY the result was no signal (0 of 3 replicates). With YFTFDDYAMH / GISTNSGSIGYADSVK / VGRGGGYFHY the result was 3.16 (3 of 3 replicates). Variant IFTPDDYAMH / GISWNSGSIGYADFVK / VGRGGGYFDY gave 5.81 (1 of 3 replicates). Variant KFTFDDYASH / GISWNSGSIGYADSVK / VGFGGGYFDY gave no signal (0 of 3 replicates). With QFTFDDYAMH / GISWNGGSIGYADSVK / VHRGGGYFDY the result was no signal (0 of 3 replicates). Variant WFTFDDYAMH / GISWNSGSIGYADSVK / VGRGGGTFDY showed no signal (0 of 3 replicates). Variant NFTFDDYAMH / QISWNSGSIGYADSVK / VGRGGGNFDY gave 4.27 (1 of 3 replicates).

Variant DFTRDDYYMH / GISWNSGSIGYADSVK / VGRGGGYFDY showed 4.42 (2 of 3 replicates). For FFTFDIYAMH / GISWNSGSIGPADSVK / VGRGGGYFDY, the assay gave no signal (0 of 3 replicates). For FFTFDDYAMH / GISWNSWSIGYPDSVK / VGRGGGYFDY, the assay gave no signal (0 of 3 replicates). Variant QFTFDDYAMH / GISWNSGSFGYADSVK / VGRTGGYFDY showed 5.13 (3 of 3 replicates). Variant EFTFDDYAMH / GISWNSGSIYYADSVK / VGRGGGYFDY gave 4.38 (1 of 3 replicates). For DFTFDDYAMH / GISWNSGSIGYADSVK / VGRGGGYFDY, the assay gave 4.94 (2 of 3 replicates). Variant LFTFDDYAME / GISWNSGSIGYADSVK / VGRGGGSFDY gave no signal (0 of 3 replicates).

Variant RFTFDDYAMH / GISWNSGSIGYADSQK / VGRGGGYFDY showed no signal (0 of 3 replicates). Variant AFTFDDYAMH / GISWNAGSITYADSVK / VGRGGGYFDY gave no signal (0 of 3 replicates). Variant MFTFDDYAMH / GISWNSGSIGYADSVK / VGRDGGGFDY gave 4.25 (1 of 3 replicates). Variant QFTFDDYAMH / GVSWNSGSFGYADSVK / VGRGGGYFDY gave 5.09 (1 of 3 replicates). Variant RFHFDDYAMA / GISWNSGSIGYADSVK / VGRGGGYFDY showed 4.73 (1 of 3 replicates). Variant MFTFDDYAMH / GISWNSGSIGYADSVK / VGRGCGYFDY showed 5.47 (3 of 3 replicates). Variant MQTFDDYAMH / GISWNSMSIGYADSVK / VGRGGGYFDY showed 3.70 (1 of 3 replicates).

With KFTFDDYAMH / GILWNMGSIGYADSVK / VGRGGGYFDY the result was 4.90 (3 of 3 replicates). Variant LFTFDDYAMH / GISWNSGSIGNADPVK / VGRGGGYFDY gave 5.23 (1 of 3 replicates). With NFTFDDYAMH / GISWNKGSIGYADSVK / VGRGGGYKDY the result was no signal (0 of 3 replicates). With DFTFDDYAMH / GISWNSGSIGVADSVK / VLRGGGYFDY the result was 5.17 (3 of 3 replicates). Variant KFTFDDYAMH / GISWNSGSIGYADSVK / VGRGGGYFDY showed 4.04 (3 of 3 replicates). With KFKFDDYAMH / GISWNSGSIGYADSVK / VGNGGGYFDY the result was 1.71 (3 of 3 replicates). With RFTFDDYAMH / GISWNSGSIGYADSVK / VGRGGQMFDY the result was no signal (0 of 3 replicates).

Variant FFTFDDYAMH / GISWNSGSIGYADSEK / VGRGGGQFDY showed no signal (0 of 3 replicates). With WFTFDDYAMH / GISWNSSSIGYADSVK / VGREGGYFDY the result was 3.39 (1 of 3 replicates). With TFCFDDYAMH / GISWNSGSIGYADSVK / VGRGGGYADY the result was 4.72 (1 of 3 replicates). With LFTFDDYAMH / GISWESGSEGYADSVK / VGRGGGYFDY the result was no signal (0 of 3 replicates). With MFTTDDYAMH / GISWNSGSIGYAWSVK / VGRGGGYFDY the result was 2.48 (1 of 3 replicates). With CFTFDDYAMH / GISWNSGSIGYLDSVK / VGRGGGYFDY the result was 5.08 (2 of 3 replicates).

Extract of 6 entries:

| CDR-H1 | CDR-H2 | CDR-H3 | log10 Kd (nM), mean | seen in |
|---|---|---|---|---|
| RFTFDDYAMH | GISWNSGSIGYADSQK | VGRGGGYFDY | no signal | 0/3 |
| QFTFDDYAMH | GVSWNSGSFGYADSVK | VGRGGGYFDY | 5.09 | 1/3 |
| FFTFDDYAMH | GISWNSGSIGYADSEK | VGRGGGQFDY | no signal | 0/3 |
| SFTFVDYAMH | GISWNSGSIGYADSVK | VGRGGHYFDY | no signal | 0/3 |
| EFTFDDYAMH | GISWNSGSIYYADSVK | VGRGGGYFDY | 4.38 | 1/3 |
| LFTFDDYAMH | GISWESGSEGYADSVK | VGRGGGYFDY | no signal | 0/3 |